In the data set the test system is buprenorphine. Kind of data set: not read. Particulars: other: Michaelis-Menten, pH 7.5.

The Km is the substrate concentration at which the rate is half of its maximum. As usually defined, the Vmax is the top rate of the reaction or transport when substrate is in excess. Take human SULT2A1 (Homo sapiens): the Michaelis-Menten constant (Km) is 169.9 ± 12.62 µM and the maximum rate (Vmax) was 0.00723 µmol/min/mg.

The values are drawn from paper PMC4459640 (European journal of pharmaceutical sciences : official …, 2014).
